Sequences of proteins named here, by UniProt entry; tags and fusion partners are left off. A change or cut given only in a name is not applied to a line headed by its entry. Residues count along the entry.
UniProt P04049, 325-648: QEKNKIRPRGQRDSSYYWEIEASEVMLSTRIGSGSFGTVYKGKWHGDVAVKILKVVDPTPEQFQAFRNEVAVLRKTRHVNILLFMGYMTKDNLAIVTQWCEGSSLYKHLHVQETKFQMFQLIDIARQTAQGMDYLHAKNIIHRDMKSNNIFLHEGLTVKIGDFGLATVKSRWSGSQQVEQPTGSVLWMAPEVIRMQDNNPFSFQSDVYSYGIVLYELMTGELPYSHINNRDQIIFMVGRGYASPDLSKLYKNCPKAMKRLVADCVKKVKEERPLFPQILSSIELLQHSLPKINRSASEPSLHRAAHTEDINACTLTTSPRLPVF
UniProt P15056, whole entry V600E: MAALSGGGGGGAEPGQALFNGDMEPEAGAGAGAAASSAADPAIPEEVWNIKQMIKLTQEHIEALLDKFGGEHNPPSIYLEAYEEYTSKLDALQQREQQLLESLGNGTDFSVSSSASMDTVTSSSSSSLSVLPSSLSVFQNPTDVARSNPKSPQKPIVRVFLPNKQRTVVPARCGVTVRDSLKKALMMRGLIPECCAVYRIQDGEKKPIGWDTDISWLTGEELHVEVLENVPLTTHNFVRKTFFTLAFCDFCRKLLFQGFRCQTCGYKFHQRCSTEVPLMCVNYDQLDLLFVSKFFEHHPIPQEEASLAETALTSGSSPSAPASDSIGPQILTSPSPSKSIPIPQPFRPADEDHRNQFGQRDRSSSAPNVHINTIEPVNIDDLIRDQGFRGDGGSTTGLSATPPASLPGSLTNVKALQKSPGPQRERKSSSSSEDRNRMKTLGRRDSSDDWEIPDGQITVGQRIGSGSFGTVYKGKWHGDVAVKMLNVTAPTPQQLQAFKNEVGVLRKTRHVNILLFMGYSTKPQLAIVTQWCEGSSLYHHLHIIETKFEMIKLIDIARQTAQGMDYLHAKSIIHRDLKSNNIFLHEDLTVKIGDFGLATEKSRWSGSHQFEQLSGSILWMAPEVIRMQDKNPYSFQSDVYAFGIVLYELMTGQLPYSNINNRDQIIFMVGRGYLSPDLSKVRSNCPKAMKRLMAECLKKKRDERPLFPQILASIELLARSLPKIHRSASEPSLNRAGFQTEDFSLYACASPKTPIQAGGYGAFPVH

In US9694016B2 (dated 2017):

These molecules were tested against C-Raf TR (truncated C-Raf protein, Δ1-324 deletion mutant) (Homo sapiens (Human), UniProt P04049). Details: read-out: C-Raf TR IC50; truncated C-Raf approximately 4 nM, ATP 1 uM, 60 min pre-incubation, 1 hour reaction.
Assay type: biochemical

Compound	IC50 [nM]
Cc1ccc(NC(=O)c2ccnc(C(C)(C)C#N)c2)cc1-c1cc(N2CCOCC2)ncn1 [Example 2, 2-(2-cyanopropan-2-yl)-N-(4-methyl-3-(6-morpholinopyrimidin-4-yl)phenyl)isonicotinamide]	2.95
Cc1ccc(NC(=O)c2cccc(C(F)(F)F)c2)cc1-c1cc(N2CCS(=O)(=O)CC2)nc(N2CCOCC2)n1 [Example 6, N-(3-(6-(1,1-dioxidothiomorpholino)-2-morpholinopyrimidin-4-yl)-4-methylphenyl)-3-(trifluoromethyl)benzamide]	0.408
Cc1ccc(NC(=O)c2cccc(C(F)(F)F)c2)cc1-c1cc(N2CCOCC2)nc(N2CCOCC2)n1 [Example 10, N-(3-(2,6-dimorpholinopyrimidin-4-yl)-4-methylphenyl)-3-(trifluoromethyl)benzamide]	0.118
Cc1ccc(NC(=O)c2cccc(C(F)(F)F)c2)cc1-c1nc(N2CCOCC2)cc(N2CCOCC2)n1 [Example 13, N-(3-(4,6-dimorpholinopyrimidin-2-yl)-4-methylphenyl)-3-(trifluoromethyl)benzamide]	0.533
Cc1ccc(NC(=O)c2cccc(C(F)(F)F)c2)cc1-c1cc(N2CCOCC2)ccn1 [Example 111, N-(4-methyl-3-(4-morpholinopyridin-2-yl)phenyl)-3-(trifluoromethyl)benzamide]	0.403

These molecules were tested against b-Raf (V600E) (Homo sapiens (Human), UniProt P15056, V600E). Details: read-out: b-Raf IC-50.

Compound	IC50 [nM]
Cc1ccc(NC(=O)c2ccnc(N(C)C)c2)cc1-c1cc(N2CCOCC2)c(=O)n(C)c1 [Example 452, 2-(dimethylamino)-N-(4-methyl-3-(1-methyl-5-morpholino-6-oxo-1,6-dihydropyridin-3-yl)phenyl)isonicotinamide]	2.3
Cc1ccc(NC(=O)c2cccc(C(F)(F)F)c2)cc1-c1cc(N2CCOCC2)c(S(C)(=O)=O)nn1 [Example 602, N-(4-methyl-3-(6-(methylsulfonyl)-5-morpholinopyridazin-3-yl)phenyl)-3-(trifluoromethyl)benzamide]	1.2
Cc1ccc(NC(=O)c2ccnc(S(C)(=O)=O)c2)cc1-c1cc2[nH]cnc2c(N2CCOCC2)n1 [Example 821]	3.8
Cc1ncc(NC(=O)c2cc(C(F)(F)F)ccn2)cc1-c1cc(N2CCOCC2)c2nccn2c1 [Example 876, N-(6-methyl-5-(8-morpholinoimidazo[1,2-a]pyridin-6-yl)pyridin-3-yl)-4-(trifluoromethyl)picolinamide]	2.4

Same assay, conditions: read-out: b-Raf IC-50; AlphaScreen, 60 min pre-incubation, 3 hours reaction

IC50 [nM]	Compound
27.6	Cc1nc(-c2cccc(NC(=O)c3ccc(C)c(-c4cc(N5CCOCC5)c(=O)n(C)c4)c3)c2)no1 [Example 438, 4-methyl-N-(3-(5-methyl-1,2,4-oxadiazol-3-yl)phenyl)-3-(1-methyl-5-morpholino-6-oxo-1,6-dihydropyridin-3-yl)benzamide]
4.1	Cc1ccc(NC(=O)c2cccc(-c3nnco3)c2)cc1-c1cc(N2CCOCC2)n(C)c(=O)c1 [Example 493, N-(4-methyl-3-(1-methyl-6-morpholino-2-oxo-1,2-dihydropyridin-4-yl)phenyl)-3-(1,3,4-oxadiazol-2-yl)benzamide]
47.8	Cc1ncc(NC(=O)c2ccnc(C(C)(C)C#N)c2)cc1-c1cc(N2CCOCC2)nc(NCCO)n1 [Example 736, 2-(2-cyanopropan-2-yl)-N-(5-(2-((2-hydroxyethyl)amino)-6-morpholinopyrimidin-4-yl)-6-methylpyridin-3-yl)isonicotinamide]
4.1	Cc1ccc(NC(=O)c2ccnc(C(C)(C)C#N)c2)cc1-c1cc(N2CCOCC2)nc(NC[C@H](C)O)n1 [Example 739, (S)-2-(2-cyanopropan-2-yl)-N-(3-(2-((2-hydroxypropyl)amino)-6-morpholinopyrimidin-4-yl)-4-methylphenyl)isonicotinamide]
5.1	Cc1ccc(NC(=O)c2ccnc(C(C)(C)C#N)c2)cc1-c1cc(N2CCOCC2)nc(NC[C@@H](C)O)n1 [Example 741, (R)-2-(2-cyanopropan-2-yl)-N-(3-(2-((2-hydroxypropyl)amino)-6-morpholinopyrimidin-4-yl)-4-methylphenyl)isonicotinamide]

Same assay, conditions: read-out: b-Raf IC-50; AlphaScreen, 60 min pre-incubation, reaction 3 hours at room temperature

IC50 [nM]	Compound
19.4	Cc1ncc(NC(=O)c2cc(C(C)(C)O)ccn2)cc1-c1cnc(OC(C)C)c(N2CCOCC2)c1 [Example 959, 4-(2-hydroxypropan-2-yl)-N-(6′-isopropoxy-2-methyl-5′-morpholino-[3,3′-bipyridin]-5-yl)picolinamide]
1.87	Cc1ncc(NC(=O)c2ccnc(C(F)F)c2)cc1-c1cnc(OC2CC3(COC3)C2)c(N2CCOCC2)c1 [Example 965, N-(6′-(2-oxaspiro[3.3]heptan-6-yloxy)-2-methyl-5′-morpholino-[3,3′-bipyridin]-5-yl)-2-(difluoromethyl)isonicotinamide]
1.93	Cc1ncc(NC(=O)c2cccc(C(F)(F)F)c2)cc1-c1cnc(C=C2CCOCC2)c(N2CCOCC2)c1 [Example 994, N-(6′-((dihydro-2H-pyran-4(3H)-ylidene)methyl)-2-methyl-5′-morpholino-[3,3′-bipyridin]-5-yl)-3-(trifluoromethyl)benzamide]
5.1	Cc1ccc(NC(=O)c2ccnc(C(C)(F)F)c2)cc1-c1cc(NC[C@@H](C)O)nc(N2CCOCC2)n1 [Example 1024]
2.08	Cc1ncc(NC(=O)c2cccc(C(F)(F)F)c2)cc1-c1cnc(OCCOCCO)c(N2CCOCC2)c1 [Example 1033, N-(6′-(2-(2-hydroxyethoxy)ethoxy)-2-methyl-5′-morpholino-[3,3-bipyridin]-5-yl)-3-(trifluoromethyl)benzamide]
1.93	Cc1ncc(NC(=O)c2cccc(C(F)F)c2)cc1-c1cc(N2CCOCC2)nc(N2CCOCC2)c1 [Example 1121, 3-(difluoromethyl)-N-(2-methyl-2′,6′-dimorpholino-[3,4′-bipyridin]-5-yl)benzamide]
25000	O=C(Nc1c[nH]c(=O)c(-c2ccnc(N3CCOCC3)c2)c1)c1ccnc(C(F)(F)F)c1 [Example 1172, N-(2′-morpholino-2-oxo-1,2-dihydro-[3,4′-bipyridin]-5-yl)-2-(trifluoromethyl)isonicotinamide]

Same assay, conditions: read-out: b-Raf IC-50; Table 2; AlphaScreen, 3 hours reaction

IC50 [nM]	Compound
1.6	C=C(C)c1cc(-c2cc(NC(=O)c3cccc(C(F)(F)F)c3)ccc2C)nc(N2CCOCC2)n1 [Example 42, N-(4-methyl-3-(2-morpholino-6-(prop-1-en-2-yl)pyrimidin-4-yl)phenyl)-3-(trifluoromethyl)benzamide]
25000	O=C(Nc1c[nH]c(=O)c(-c2ccnc(N3CCOCC3)c2)c1)c1ccnc(C(F)(F)F)c1 [Example 90, N-(2′-morpholino-2-oxo-1,2-dihydro-[3,4′-bipyridin]-5-yl)-2-(trifluoromethyl)isonicotinamide]
1.9	COc1ncc(-c2cc(NC(=O)c3cccc(C(F)(F)F)c3)cnc2C)cc1N1CCOCC1 [Example 127, N-(6′-methoxy-2-methyl-5′-morpholino-[3,3′-bipyridin]-5-yl)-3-(trifluoromethyl)benzamide]
6.9	CCN1CCN(c2cc(C(=O)Nc3ccc(C)c(-c4cc(N5CCOCC5)c(=O)n(C)c4)c3)cc(C(F)(F)F)c2)CC1 [Example 174, 3-(4-ethylpiperazin-1-yl)-N-(4-methyl-3-(1-methyl-5-morpholino-6-oxo-1,6-dihydropyridin-3-yl)phenyl)-5-(trifluoromethyl)benzamide]
12.2	Cc1ccc(NC(=O)c2cc(C3CC3)nn2C)cc1-c1cc(N2CCOCC2)c(=O)n(C)c1 [Example 368, 3-cyclopropyl-1-methyl-N-(4-methyl-3-(1-methyl-5-morpholino-6-oxo-1,6-dihydropyridin-3-yl)phenyl)-1H-pyrazole-5-carboxamide]
5.9	Cc1ncc(NC(=O)c2cc(C(C)C)on2)cc1-c1cc(N2CCOCC2)c(=O)n(C)c1 [Example 379, N-(1′,2-dimethyl-5′-morpholino-6′-oxo-1′,6′-dihydro-[3,3′-bipyridin]-5-yl)-5-isopropylisoxazole-3-carboxamide]
